## scFv variants of Ab-95 (light chain) against a SARS-CoV-2 spike peptide

Binding partner: SARS-CoV-2 spike HR2 peptide, sequence PDVDLGDISGINAS.

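Phage display of a naive human antibody library on the peptide gave the parent. Variants in AAYL52 differ from the parent at up to three CDR positions; double and triple changes were sampled at random. The assay is AlphaSeq: two haploid yeast populations carry antibody and antigen on their surface. Binding brings cells together so that they mate, and sequencing counts the barcode pairs among the diploids. Each replicate has its own calibration line, from reference interactions of the BCL2 family. Each pool was mated in three replicate cultures.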

Parent: Ab-95, a human scFv built as VH, a 15-residue (Gly4Ser)3 linker, VL. Only the CDRs of the light chain vary.
VH: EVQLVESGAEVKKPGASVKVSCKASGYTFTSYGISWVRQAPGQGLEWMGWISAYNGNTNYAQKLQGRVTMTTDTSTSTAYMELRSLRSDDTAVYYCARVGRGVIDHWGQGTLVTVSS
VL: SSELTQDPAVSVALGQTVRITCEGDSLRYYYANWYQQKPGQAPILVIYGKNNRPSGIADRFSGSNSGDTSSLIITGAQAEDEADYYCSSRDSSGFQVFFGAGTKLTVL

Each variant is given by its three light chain CDRs, as the data file delimits them; those of the parent are EGDSLRYYYAN, GKNNRPS, SSRDSSGFQVF.
Every variant below is changed at S89 of the VL (sequential numbering).
Kd is apparent (estimated from mating counts) and averaged on the log scale over replicates with a signal. Smaller is tighter.
An entry "not detected" has no value in the source: the pair was not observed among the diploids in any replicate. This suggests poor binding but is not conclusive.
Parent in this assay: reference entry 200 nM, copy in this library 180 nM.
Empty control strains, which show no peptide, gave a signal in 28% of pairings with library AAYL52; the median was 8.2 µM and 95% of these signals were weaker than 800 nM. No background was subtracted.

CDR-L1	CDR-L2	CDR-L3	apparent Kd	detected
ELDSLRYYYAN	GKNNRPS	NDRDSSGFQVF	31 µM	3 of 3
EGDSLRYYYAN	GKNNRPS	SGIDSSGGQVF	390 nM	3 of 3
EGDHLRYAYAN	GKNNRPS	SYRDSSGFQVF	20 nM	3 of 3
EGDSLRYYYAN	GKNNRFS	SYQDSSGFQVF	3.2 µM	3 of 3
EDDSLRYYGAN	GKNNRPS	SKRDSSGFQVF	1.3 µM	3 of 3
SGDSLRGYYAN	GKNNRPS	SHRDSSGFQVF	190 nM	3 of 3
EGDSLRYLYAN	GDNNRPS	SHRDSSGFQVF	450 nM	3 of 3
EGDSLRYYFAN	GKNNRNS	SKRDSSGFQVF	5.4 µM	2 of 3
EGDSLRYYYAV	GKNNRPS	SHHDSSGFQVF	not detected	0 of 3
EGDSLRYYYAN	GKNNRPS	SGRDSSLFQVF	1.9 µM	3 of 3
EWRSLRYYYAN	GKNNRPS	SVRDSSGFQVF	46 µM	2 of 3
EGDSLRYYDAN	GKNNRPS	SYRDSDGFQVF	13 nM	3 of 3
EGDSLRYYYAN	GGNNRPE	SHRDSSGFQVF	250 nM	3 of 3
CGDSLRYHYAN	GKNNRPS	SPRDSSGFQVF	not detected	0 of 3
EYDSLRYYYAN	FKNNRPS	SYRDSSGFQVF	5.2 µM	2 of 3
EGDSLFYYYAN	GKNNRPS	SEFDSSGFQVF	1.2 µM	3 of 3
EGDSLRYYYAN	GKNNRPR	SGRDSSGFQVH	8.0 µM	3 of 3
EGVSLRYYSAN	GKNNRPS	SRRDSSGFQVF	8.7 µM	2 of 3
EGDSLRYYYAN	GYNNEPS	SFRDSSGFQVF	not detected	0 of 3
EGDSLRYYYAN	GKNNRPS	FCRDSSGFQVF	1.9 µM	3 of 3
EGDSLRYYYAN	GKMNRPS	SGRQSSGFQVF	2.8 µM	3 of 3
HGDSLRYYYAN	GKNNRPI	STRDSSGFQVF	550 nM	3 of 3
EGDSLRYYYAN	GKNIRPS	NGRDSSGFQVF	630 nM	3 of 3
EGDSLRYYYAN	GKNNRPI	SVRDSSGFQVG	540 nM	3 of 3
EGDSLRYYMAN	GKNNRPS	PYRDSSGFQVF	46 nM	3 of 3
EGDSLRYYYAN	GKNNRPS	STDDSSGEQVF	not detected	0 of 3
EGPSLRYYYAN	GKNNRPS	SNRDSSGFQVF	300 nM	3 of 3
EGDSLRVYYAN	GKNNRHS	SGRDSSGFQVF	1.8 µM	2 of 3
EGDSLRYYYAN	GKNNRPS	STRDSSDFQYF	not detected	0 of 3
EGPSLRYYYAN	GKNNRPS	SNRDESGFQVF	55 nM	3 of 3
EGDSLRYYYAD	GKNNRPM	SRRDSSGFQVF	12 µM	1 of 3
EGDSLRYYYAN	EKNNRPF	SKRDSSGFQVF	22 µM	1 of 3
EGDSLRYYYAN	GKPNFPS	SCRDSSGFQVF	not detected	0 of 3
EGDSLRYYYAN	GKVNRPS	SDRDNSGFQVF	84 µM	2 of 3
EGDSLSYYYAN	GKNNRPS	SCRDSSGFQVP	250 nM	3 of 3
EGDSLEYYYAN	GKNNRPS	SFRDSSGFQVF	1.6 µM	3 of 3
EGCSVRYYYAN	GKNNRPS	SQRDSSGFQVF	760 nM	3 of 3
EGDKLPYYYAN	GKNNRPS	SLRDSSGFQVF	1.0 µM	2 of 3
EGSSLRYYYAN	GKNNRPS	STRDSPGFQVF	180 nM	3 of 3
EGDSLRYYYAN	GKNNLPS	SKRDSSGFQVF	3.3 µM	1 of 3
EGDSLRWYYAN	GKNNRPS	SNRDISGFQVF	not detected	0 of 3
EGDSLRYYYAN	IKNNRPS	SGRDSSTFQVF	5.1 µM	1 of 3
KGDSLRYYYEN	GKNNRPS	SHRDSSGFQVF	22 µM	2 of 3
EGDSLRYYYAN	GKNNRPS	SMRDSSGFQVL	19 µM	1 of 3
EGDSLRYYYAN	GKNNRPS	DHRDSSCFQVF	530 nM	3 of 3
EGDTLRYYYAN	GKNNRPS	SHRQSSGFQVF	870 nM	3 of 3
ESDSLRYYYAN	GKNNRPS	SIRDSSVFQVF	3.8 µM	2 of 3
EGDSLRYYYYN	GKNNCPS	SRRDSSGFQVF	7.2 µM	1 of 3
EGDSLRYYYAN	MKNNRPS	SCRRSSGFQVF	8.2 µM	1 of 3
EGDSLRYYYAN	GKNNRPS	STRDESGFRVF	610 nM	3 of 3
EGDSLRYYYAN	GKNNRPS	SFRDRSGFQNF	390 nM	3 of 3
EGDSHRYYYAN	GKNNRIS	SFRDSSGFQVF	11 µM	1 of 3
EGDSLRYYYAV	GKNNRPQ	SYRDSSGFQVF	not detected	0 of 3
EGDSLRYYYAN	GKNNRPS	EVRDSCGFQVF	12 µM	2 of 3
EGKSLRYYYAN	GKNNRPS	SPRDSSGFQVK	4.9 µM	3 of 3
EGDSLYYYYAN	GKNNRPS	SQADSSGFQVF	9.4 µM	3 of 3
EGDALRYYYAN	GKNVRPS	SPRDSSGFQVF	not detected	0 of 3

Again, the first 9 entries without any signal:

{"CDR-L1": "EGDSLRYYYAV", "CDR-L2": "GKNNRPS", "CDR-L3": "SHHDSSGFQVF", "apparent Kd": "not detected", "detected": "0 of 3"}
{"CDR-L1": "CGDSLRYHYAN", "CDR-L2": "GKNNRPS", "CDR-L3": "SPRDSSGFQVF", "apparent Kd": "not detected", "detected": "0 of 3"}
{"CDR-L1": "EGDSLRYYYAN", "CDR-L2": "GYNNEPS", "CDR-L3": "SFRDSSGFQVF", "apparent Kd": "not detected", "detected": "0 of 3"}
{"CDR-L1": "EGDSLRYYYAN", "CDR-L2": "GKNNRPS", "CDR-L3": "STDDSSGEQVF", "apparent Kd": "not detected", "detected": "0 of 3"}
{"CDR-L1": "EGDSLRYYYAN", "CDR-L2": "GKNNRPS", "CDR-L3": "STRDSSDFQYF", "apparent Kd": "not detected", "detected": "0 of 3"}
{"CDR-L1": "EGDSLRYYYAN", "CDR-L2": "GKPNFPS", "CDR-L3": "SCRDSSGFQVF", "apparent Kd": "not detected", "detected": "0 of 3"}
{"CDR-L1": "EGDSLRWYYAN", "CDR-L2": "GKNNRPS", "CDR-L3": "SNRDISGFQVF", "apparent Kd": "not detected", "detected": "0 of 3"}
{"CDR-L1": "EGDSLRYYYAV", "CDR-L2": "GKNNRPQ", "CDR-L3": "SYRDSSGFQVF", "apparent Kd": "not detected", "detected": "0 of 3"}
{"CDR-L1": "EGDALRYYYAN", "CDR-L2": "GKNVRPS", "CDR-L3": "SPRDSSGFQVF", "apparent Kd": "not detected", "detected": "0 of 3"}

Source: Engelhart et al. 2022 (doi:10.1038/s41597-022-01779-4), MIT Lincoln Laboratory and A-Alpha Bio; data file from the FLAb repository.